Source: US20220002435A1 (IMMUNOME, published 2022)

Columns and labels:
[1] = molecular target: T1, mouse EPN1 expressed by mouse cell lines (mouse, UniProt Q80VP1 1-575); experiment: flow cytometry, 4T1 cells (mouse tumor line)
T1 construct: whole, on cells; also called murine EPN1
T1 sequence (looked up): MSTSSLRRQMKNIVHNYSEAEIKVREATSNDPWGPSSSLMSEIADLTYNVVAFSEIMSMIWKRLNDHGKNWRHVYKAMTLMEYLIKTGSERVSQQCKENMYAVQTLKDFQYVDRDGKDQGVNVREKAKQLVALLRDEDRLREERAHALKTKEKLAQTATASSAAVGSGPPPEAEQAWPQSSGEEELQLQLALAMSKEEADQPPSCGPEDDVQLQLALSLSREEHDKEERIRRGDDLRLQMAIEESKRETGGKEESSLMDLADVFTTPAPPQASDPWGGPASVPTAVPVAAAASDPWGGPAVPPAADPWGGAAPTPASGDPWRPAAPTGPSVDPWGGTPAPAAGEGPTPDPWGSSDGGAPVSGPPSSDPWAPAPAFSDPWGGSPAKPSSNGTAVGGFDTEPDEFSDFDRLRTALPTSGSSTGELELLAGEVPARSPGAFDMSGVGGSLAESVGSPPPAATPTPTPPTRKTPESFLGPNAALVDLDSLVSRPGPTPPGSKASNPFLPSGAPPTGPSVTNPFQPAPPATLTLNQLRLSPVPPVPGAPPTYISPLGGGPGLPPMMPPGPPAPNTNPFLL

[2] = molecular target: T2, human EPN1 expressed by human cell lines (human, UniProt Q9Y6I3 1-576); experiment: flow cytometry, BJ cells (human normal line)
T2 construct: Endogenous EPN1 of human tumour and normal cell lines, stained on live cells or on fixed and permeabilised cells, or immunoprecipitated; The cell lines were not engineered to express it; also called surface EPN1; huEPN1
T2 sequence: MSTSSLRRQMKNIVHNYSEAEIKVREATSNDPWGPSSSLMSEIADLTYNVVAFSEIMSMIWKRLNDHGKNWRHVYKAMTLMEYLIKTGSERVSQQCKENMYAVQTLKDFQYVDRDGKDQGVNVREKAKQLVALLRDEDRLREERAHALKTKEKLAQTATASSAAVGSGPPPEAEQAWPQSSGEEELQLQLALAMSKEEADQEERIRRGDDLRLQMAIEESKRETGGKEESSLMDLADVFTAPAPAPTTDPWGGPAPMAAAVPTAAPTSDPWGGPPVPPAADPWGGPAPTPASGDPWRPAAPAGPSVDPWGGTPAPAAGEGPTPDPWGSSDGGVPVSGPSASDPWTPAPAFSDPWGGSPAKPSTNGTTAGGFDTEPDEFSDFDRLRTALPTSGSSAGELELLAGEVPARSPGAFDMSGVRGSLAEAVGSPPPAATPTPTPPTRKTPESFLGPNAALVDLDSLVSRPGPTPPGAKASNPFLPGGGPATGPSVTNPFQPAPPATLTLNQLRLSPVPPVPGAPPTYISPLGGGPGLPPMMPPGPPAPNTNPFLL

[3] = molecular target: T2, human EPN1 expressed by human cell lines; experiment: flow cytometry, 786o cells (human tumor line)
[4] = molecular target: T2, human EPN1 expressed by human cell lines; experiment: flow cytometry, A375 cells (human tumor line)
[5] = molecular target: T1, mouse EPN1 expressed by mouse cell lines; experiment: flow cytometry, EMT6 cells (mouse tumor line)
[6] = molecular target: T2, human EPN1 expressed by human cell lines; experiment: flow cytometry, H522 cells (human tumor line)
[7] = molecular target: T2, human EPN1 expressed by human cell lines; experiment: flow cytometry, HT29 cells (human tumor line)
[8] = molecular target: T2, human EPN1 expressed by human cell lines; experiment: flow cytometry, MCF7 cells (human tumor line)
[9] = molecular target: T2, human EPN1 expressed by human cell lines; experiment: flow cytometry, T47D cells (human tumor line)
[10] = molecular target: T2, human EPN1 expressed by human cell lines; experiment: flow cytometry, 22Rv1 cells (human tumor line)
[11] = molecular target: T2, human EPN1 expressed by human cell lines; experiment: flow cytometry, CAL27 cells (human tumor line)
[12] = molecular target: T2, human EPN1 expressed by human cell lines; experiment: flow cytometry, CAOV3 cells (human tumor line)
[13] = molecular target: T1, mouse EPN1 expressed by mouse cell lines; experiment: flow cytometry, CT-26 cells (mouse tumor line)
[14] = molecular target: T2, human EPN1 expressed by human cell lines; experiment: flow cytometry, HepG2 cells (human tumor line)
[15] = molecular target: T2, human EPN1 expressed by human cell lines; experiment: flow cytometry, WM3211 cells (human tumor line)
[16] = molecular target: T2, human EPN1 expressed by human cell lines; experiment: flow cytometry, MDAMB231 cells (human tumor line)
[17] = molecular target: T3, recombinant EPN1 (Origene, cat #TP307099) (human, UniProt Q9Y6I3 1-576); experiment: SPR, IMM20059 captured at 2800 RU on CM5/Protein A, EPN1 in solution, 25° C.
T3 construct: Bought protein; also called Epsin-1; Epsin 1
T3 sequence: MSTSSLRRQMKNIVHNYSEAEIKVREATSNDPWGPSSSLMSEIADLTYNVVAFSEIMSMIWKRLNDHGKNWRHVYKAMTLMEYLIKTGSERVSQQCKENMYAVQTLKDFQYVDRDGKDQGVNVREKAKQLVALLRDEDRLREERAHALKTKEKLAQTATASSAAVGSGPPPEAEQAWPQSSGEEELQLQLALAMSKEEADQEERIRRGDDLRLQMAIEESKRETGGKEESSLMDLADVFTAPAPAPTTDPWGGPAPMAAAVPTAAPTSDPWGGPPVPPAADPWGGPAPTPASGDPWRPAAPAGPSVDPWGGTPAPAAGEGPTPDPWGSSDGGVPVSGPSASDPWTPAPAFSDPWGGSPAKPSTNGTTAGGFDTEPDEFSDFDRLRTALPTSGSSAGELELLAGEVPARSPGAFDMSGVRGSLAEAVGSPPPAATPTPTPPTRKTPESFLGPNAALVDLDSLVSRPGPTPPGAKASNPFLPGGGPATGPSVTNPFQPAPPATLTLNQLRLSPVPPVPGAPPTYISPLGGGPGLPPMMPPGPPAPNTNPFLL
Protocol: IMM20059 was captured at four different surface densities (500, 1000, 2600, and 2800 RU) on a CM5/Protein A sensor chip using 10 mM HEPES, pH 7.4, 150 mM NaCl, 0.005% Tween-20, 0.2 mg/mL BSA as a running buffer. EPN1 (Origene Cat #TP307099) or EPN2 (Origene Cat #TP310899) were diluted in running buffer to both 200 nM and 20 nM and analyzed for the ability to bind to the immobilized IMM20059 at 25° C. […] However, as detailed in Table 4, the observed off-rates for binding to EPN1 were dependent upon IMM20059 surface density, with the off-rate on the 500 RU surface being 2.4-times faster than the off-rate measured on the 2800 RU density surface.

MFI (fold mean fluorescence index above isotype control) [1]: 8 fold
MFI (fold mean fluorescence index above isotype control) [2]: 3 fold
MFI (fold mean fluorescence index above isotype control) [3]: 7 fold
MFI (fold mean fluorescence index above isotype control) [4]: 5 fold
MFI (fold mean fluorescence index above isotype control) [5]: 6 fold
MFI (fold mean fluorescence index above isotype control) [6]: 3 fold
MFI (fold mean fluorescence index above isotype control) [7]: 6 fold
MFI (fold mean fluorescence index above isotype control) [8]: 2 fold
MFI (fold mean fluorescence index above isotype control) [9]: 5 fold
MFI (fold mean fluorescence index above isotype control) [10]: 20 fold
MFI (fold mean fluorescence index above isotype control) [11]: 13 fold
MFI (fold mean fluorescence index above isotype control) [12]: 8 fold
MFI (fold mean fluorescence index above isotype control) [13]: 6 fold
MFI (fold mean fluorescence index above isotype control) [14]: 39 fold
MFI (fold mean fluorescence index above isotype control) [15]: 3 fold
MFI (fold mean fluorescence index above isotype control) [16]: 4 fold
Kd [17]: 0.827 nM
koff [17]: 0.000243 s⁻¹
kon [17]: 293000 M⁻¹ s⁻¹
B1: IMM20059 (antibody, human IgG1, kappa, V domains shown)
VH: EVQLVESGGGLVQPGGSLRLSCAASGFTFSIHSLNWVRQAPGKGLEWVSYISSNSTTIYYADSVKGRFTISRDNAKDSLYLQMNSLRDEDTAVYYCARDYYCTGGTCFFLPDLWGRGALVTVSS
VL: EIVLTQSPATLSLSPGERATLSCRASQNISNFLAWYQHKPGQAPRLLIYDASIRATGIPARFSGSGSGTDFSLTISSLEPEDFAVYFCQQRYNWLTFGGGTKVEIKR
